Results on 14 substances are retold here after patent US20150004189A1.

Assay [1] deals with HLA DP molecule DPB1*0402 (human). In words: competition vs radiolabeled peptide, purified HLA-DP.
For assay [2], the target named is HLA-DP DPB1*1401 (human). Nature of the assay: inhibition of radiolabeled peptide binding to purified HLA-DP.
Assay [3] has as its target HLA-DP DPB1*0501 (human). The assay is described as above.
The target of assay [4] is HLA-DP DPB1*0101 (human). Described as above.
The target of assay [5] is HLA-DP DPB1*2001 (human). Described as above.
The target of assay [6] is HLA-DP DPB1*0301 (human). Described as above.
For assay [7], the target named is HLA-DP DPB1*0402 (human). The description is as above.
Assay [8] addresses HLA-DR molecule DRB1*0162 (so in the source) (human). Nature of the assay: inhibition of radiolabeled peptide binding to purified HLA class II.
The target in assay [9] is HLA-DP DPB1*0401 (human). In words: inhibition of radiolabeled peptide binding to purified HLA-DP.
Assay [10] has as its target HLA DP molecule DPB1*0301 (human). Nature of the assay: competition vs radiolabeled peptide, purified HLA-DP.
In assay [11] the target is HLA-DP DPB1*0201 (human). In words: inhibition of radiolabeled peptide binding to purified HLA-DP.

For the substance “Asp f 17 peptide, position 91, … (Peptide ID 3324.0212)”, the IC50 (commonly the concentration at which inhibition is half-maximal) in assay [1] amounted to 50 µM.

Consider “Poa p 5 peptide 221-235, … (Peptide ID 3324.1564)”, for which the concentration for half-maximal inhibition (IC50) in [2] was 2 µM; in assay [3], 0.891 µM; in assay [4] it was 3.57 µM; in assay [5], 0.084 µM; in assay [6] it was 0.0076 µM; in [7], 5.2 µM.

Take “Cha o 1 peptide, position 211 (Peptide ID 3324.0521)”: in assay [8], the IC50 turned out to be 0.66 µM.

With “Cha o 1 peptide 211-225 … (Peptide ID 3324.0521)”, the concentration for half-maximal inhibition (IC50) in [9] came out at 0.76 µM; in assay [5], 0.895 µM.

Turning to “Alt a 7 peptide, position 6, … (Peptide ID 3324.0085)”, the half-maximal inhibitory concentration (IC50) in assay [10] worked out at 0.107 µM.

As for Aln g 1 (16-30) peptide 3324.0003, the results for the IC50 in [3] and in [4] were 0.054 µM and 0.388 µM, respectively.

As to “Poa p 5 peptide 211-225, … (Peptide ID 3324.1579)”, the IC50 in assay [2] is 0.485 µM; in assay [5], 0.352 µM.

Take “Alt a 6 peptide, position 161, … (Peptide ID 3324.0073)”: the half-inhibitory concentration (IC50) in [1] stood at 0.069 µM; in assay [10] it was 5.07 µM.

For “Cla h 8 peptide, position 151, … (Peptide ID 3324.0603)”, the IC50 in assay [1] was 10.7 µM.

Turning to “Cla h 8 peptide, position 181, … (Peptide ID 3324.0602)”, the IC50 in assay [10] was 0.695 µM.

As for “Poa p 5 peptide 206-220, … (Peptide ID 3324.1583)”, in [4], the IC50 is 0.566 µM.

In the case of “Lol p 1 peptide 176-190 … (Peptide ID 3324.1135)”, the IC50 turned out to be 1.05 µM in assay [2]; 0.065 µM in assay [3]; 0.114 µM in assay [4]; 0.383 µM in assay [9]; 13 µM in assay [5]; 2.9 µM in assay [6].

For “Alt a 7 peptide, position 190, … (Peptide ID 3324.0080)”, the half-maximal inhibitory concentration (IC50) in assay [10] stood at 0.036 µM.

For the substance “Dac g 1 peptide 181-195 … (Peptide ID 3324.0655)”, the half-maximal inhibitory concentration (IC50) in [2] came to 7.75 µM; in assay [3], 0.5 µM; in [11], 0.279 µM; in assay [5], 12.3 µM; in assay [6], 50 µM.
